Reference: patent US6479495B1, “Aminoalkylphenol derivatives and related compounds” (priority 1997, dated 2002)

By UniProt entry, the sequences of proteins in these tests, tags left out.
UniProt P22909, whole entry: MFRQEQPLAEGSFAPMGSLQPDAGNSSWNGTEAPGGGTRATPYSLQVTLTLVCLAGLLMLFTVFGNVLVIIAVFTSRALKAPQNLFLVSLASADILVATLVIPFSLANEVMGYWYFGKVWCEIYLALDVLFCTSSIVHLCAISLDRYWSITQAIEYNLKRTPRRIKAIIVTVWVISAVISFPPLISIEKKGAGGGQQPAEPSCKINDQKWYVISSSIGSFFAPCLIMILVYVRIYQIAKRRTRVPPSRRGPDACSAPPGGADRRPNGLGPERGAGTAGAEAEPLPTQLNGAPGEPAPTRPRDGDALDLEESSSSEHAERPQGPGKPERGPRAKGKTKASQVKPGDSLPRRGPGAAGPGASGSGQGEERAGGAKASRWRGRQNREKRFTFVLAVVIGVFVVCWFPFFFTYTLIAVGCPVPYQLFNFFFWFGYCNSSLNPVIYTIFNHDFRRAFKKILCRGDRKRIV

Target: clonidine: α2-receptor (Rattus norvegicus, UniProt P22909)
Conditions: read-out: Inhibition of clonidine binding activity IC50

Compound `CN(C)CCC=C1c2ccccc2CCc2ccccc21` [amitriptyline] has an IC50 of 0.039 µM.
